# Data reported in PubChem BioAssay AID1259311 (ICCB-Longwood Screening Facility, Harvard Medical School, 2017).
# The list shows a part of the results, in another mix than the full data. Some of these compounds have results that are not shown, active ones among them. The source made the active and inactive calls. No stated cut-off is given here; in the data, active means inhibition above about 85%; inactive means the rest.
# Assay: growth inhibition of S. aureus RN4220, primary screen, OD600 (AID 1259311);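 further: plate controls were untreated cells for no effect and reference antibiotic for full effect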
# Conditions: OD600, 16 h, active compounds read high
row,SMILES,inhibition
1,O=C(NCC1(N2CCCCC2)CCCCC1)c1cccc(Cl)c1,inactive: -1.69%
2,COc1cccc(C(=O)NCC2(N3CCCCC3)CCCCC2)c1,inactive: 5.55%
3,COc1ccc(Cl)cc1C(=O)NCC1(N(C)C)CCCCC1,inactive: -0.53%
4,COc1cc(C(=O)NCC2(N(C)C)CCCCC2)c([N+](=O)[O-])cc1OC,inactive: 0.764%
5,CN(C)C1(CNC(=O)c2ccc(Br)cc2)CCCCC1,inactive: -1.82%
6,CN(C)c1cccc(C(=O)NCC2(N(C)C)CCCCC2)c1,inactive: 3.78%
7,CC(C)Oc1ccc(C(=O)NCC2(N(C)C)CCCCC2)cc1,inactive: 3.17%
8,O=C(OCCN1CCCC1)C(O)(c1ccccc1)c1ccccc1,inactive: 2.53%
9,COc1ccc(Br)c(C(=O)NCC2(N3CCCCC3)CCCCC2)c1,inactive: 1.71%
10,O=C(OC1CN2CCC1CC2)C(CO)(c1ccccc1)c1ccccc1 (stereo not drawn),inactive: 9.51%
11,Cc1ccc(C(=O)NCC2(N3CCCCC3)CCCCC2)cc1,inactive: 3.82%
12,COc1cc(SC)ccc1C(=O)NCC1(N(C)C)CCCCC1,inactive: 0.262%
13,CN1[C@@H]2CC[C@H]1CC(OC(=O)C(O)(c1ccccc1)c1ccccc1)C2 (stereo partly drawn),inactive: 2.02%
14,O=C(NCC1(N2CCCCC2)CCCCC1)c1cc([N+](=O)[O-])ccc1Cl,inactive: 2.6%
15,CCN1CCCC(OC(=O)C2(O)c3ccccc3C=Cc3ccccc32)C1 (stereo not drawn),inactive: 2.33%
16,Cc1cc(C(=O)NCC2(N3CCCCC3)CCCCC2)ccc1[N+](=O)[O-],inactive: 2.03%
17,O=C(NCC1(N2CCCCC2)CCCCC1)c1cccc(Br)c1,inactive: 2.65%
18,COc1ccc(C(=O)NCC2(N(C)C)CCCCC2)cc1,inactive: 4.67%
19,CN(C)CCOC(=O)C(O)(c1ccccc1)C1CCCCC1 (stereo not drawn),inactive: 5%
20,O=C(NCC1(N2CCCCC2)CCCCC1)c1cc(F)c(F)cc1Cl,inactive: 6.79%
21,Cc1ccccc1C(=O)NCC1(N2CCCCC2)CCCCC1,inactive: 4.22%
22,CN(C)c1ccc(C(=O)NCC2(N(C)C)CCCCC2)cc1,inactive: 0.363%
23,CN(C)C1CCCC1OC(=O)C(O)(c1ccccc1)c1ccccc1 (stereo not drawn),inactive: 2.15%
